# Measurements from PubChem BioAssay AID2099 (Broad Institute, 2009).
# Chains of the proteins cited; added tags and fusions are not shown. Residues count along the entry.
# UniProt Q9H3R0, 1-420 limits assumed: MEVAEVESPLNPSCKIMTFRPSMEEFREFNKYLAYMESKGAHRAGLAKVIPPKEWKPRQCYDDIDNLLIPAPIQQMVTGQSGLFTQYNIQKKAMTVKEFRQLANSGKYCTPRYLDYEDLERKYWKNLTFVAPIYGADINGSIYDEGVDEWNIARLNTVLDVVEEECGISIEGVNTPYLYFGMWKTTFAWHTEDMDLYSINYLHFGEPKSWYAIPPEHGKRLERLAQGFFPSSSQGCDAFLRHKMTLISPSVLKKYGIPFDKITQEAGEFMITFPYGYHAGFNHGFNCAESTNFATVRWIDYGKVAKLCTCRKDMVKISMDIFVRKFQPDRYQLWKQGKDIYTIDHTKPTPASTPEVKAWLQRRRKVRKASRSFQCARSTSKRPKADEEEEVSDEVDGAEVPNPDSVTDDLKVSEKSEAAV
# Where “and” joins values, the source holds several entries; their conditions need not be identical. Equal values may be shown once. The entries are a selection whose mix differs from that of the whole data set. Some of these compounds have results that are not shown, active ones among them. Calls of active or inactive are those of the source.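 Rule for the calls: active = more than half of a compound's replicate wells show inhibition beyond 50%, single wells judged on their own value; inconclusive = some, but no more than half, of replicates pass 50% inhibition; inactive = no replicate passes 50% inhibition.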
# Molecular target: Lysine-specific demethylase 4C (Homo sapiens) (UniProt Q9H3R0)
# Experiment: JMJD2C H3K9me3 demethylation blockers – biochemical, fluorescence, DELFIA europium, primary screen (AID 2099);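 note: signal counts dimethyl H3K9 product captured on neutravidin plate; 0% = median of DMSO wells and 100% = 0.3 times that DMSO median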
# Settings: GST-JMJD2C(1-420) H3K9me3 demethylation, at 2.35 µM, stronger effect = higher value
row,SMILES,inhibition
1,Cc1ccccc1C(=O)NCC1(N2CCCCC2)CCCCC1,inactive: -1.28%
2,CN(C)C1CCCC1OC(=O)C(O)(c1ccccc1)c1ccccc1 (centres undefined),inactive: 11.4%
3,CN(C)c1ccc(C(=O)NCC2(N(C)C)CCCCC2)cc1,inactive: -10.3%
4,C=CCN1CCN(CCOC(=O)C(O)(c2ccccc2)c2ccccc2)CC1,inactive: 1.2%
5,O=C(NCC1(N2CCCCC2)CCCCC1)c1cc(F)c(F)cc1Cl,inactive: -3%
6,COc1ccc(C(=O)NCC2(N(C)C)CCCCC2)cc1,inactive: 0.721%
7,Cc1cc(C(=O)NCC2(N3CCCCC3)CCCCC2)ccc1[N+](=O)[O-],inactive: -3.82%
8,CCN1CCCC(OC(=O)C2(O)c3ccccc3C=Cc3ccccc32)C1 (centres undefined),inactive: -3.33%
9,O=C(NCC1(N2CCCCC2)CCCCC1)c1cccc(Br)c1,inactive: 2.96%
10,O=C(NCC1(N2CCCCC2)CCCCC1)c1cc([N+](=O)[O-])ccc1Cl,inactive: -13%
11,CN1[C@@H]2CC[C@H]1CC(OC(=O)C(O)(c1ccccc1)c1ccccc1)C2 (some centres undefined),inactive: 0.591%
12,CCN(CC)CC(C)C(C)OC(=O)C(O)(c1ccccc1)c1ccccc1 (centres undefined),inactive: -4.8%
13,COc1cc(SC)ccc1C(=O)NCC1(N(C)C)CCCCC1,inactive: -5.38%
14,CC(C)N1C(=O)CC2(CCN(CCOC(=O)C(O)(c3ccccc3)c3ccccc3)CC2)C1=O,inactive: -9.4%
15,Cc1ccc(C(=O)NCC2(N3CCCCC3)CCCCC2)cc1,inactive: -6.23%
16,O=C(OC1CN2CCC1CC2)C(CO)(c1ccccc1)c1ccccc1 (centres undefined),inactive: -3.24% and inactive: 22.6%
17,COc1ccc(Br)c(C(=O)NCC2(N3CCCCC3)CCCCC2)c1,inactive: 14.9%
18,CC(C)Oc1ccc(C(=O)NCC2(N(C)C)CCCCC2)cc1,inactive: -9.43%
19,CN(C)c1cccc(C(=O)NCC2(N(C)C)CCCCC2)c1,inactive: -4.16%
20,CN(C)C1(CNC(=O)c2ccc(Br)cc2)CCCCC1,inactive: -19.7%
21,COc1cc(C(=O)NCC2(N(C)C)CCCCC2)c([N+](=O)[O-])cc1OC,inactive: 11%
22,COc1cccc(C(=O)NCC2(N3CCCCC3)CCCCC2)c1,inactive: 0.327%
23,COc1ccc(Cl)cc1C(=O)NCC1(N(C)C)CCCCC1,inactive: -2.2%
24,O=C(NCC1(N2CCCCC2)CCCCC1)c1cccc(Cl)c1,inactive: -29.3%
